Assay results published in article PMC5823669, “Multi-chaperone function modulation and association with cytoskeletal proteins are key features of the function of AIP in the pituitary gland” (Oncotarget, 2018).

Assays:
[1] = biological target: GST-tagged human AIP p.R304* (human) (UniProt O00170); test: affinity purification with mass spectrometry; GST pull-down: 10 ug of purified GST-AIP bait (WT or variant) against 2 mg total protein of GH3 cell lysate; eluates of four experiments pooled; TMTsixplex labelling, Orbitrap MS; peptide intensities minus the GST control, variants given as fold of the WT experiment (WT = 1)
[2] = biological target: GST-tagged human AIP p.R304Q (human) (UniProt O00170); test: as above

normalized intensity value (fold of the WT AIP pull-down) [1]: 0.6 fold of WT | normalized intensity value (fold of the WT AIP pull-down) [2]: 0.3 fold of WT
Substance: ACTB_RAT Actin, cytoplasmic 1 (Actb) (from UniProt P60711 1-375) (natural protein)
